The target of data set [1] is T1, PXR-LBD-L10-SRC (Homo sapiens, UniProt O75469).
T1 sequence (O75469 with tags, fused parts or gaps): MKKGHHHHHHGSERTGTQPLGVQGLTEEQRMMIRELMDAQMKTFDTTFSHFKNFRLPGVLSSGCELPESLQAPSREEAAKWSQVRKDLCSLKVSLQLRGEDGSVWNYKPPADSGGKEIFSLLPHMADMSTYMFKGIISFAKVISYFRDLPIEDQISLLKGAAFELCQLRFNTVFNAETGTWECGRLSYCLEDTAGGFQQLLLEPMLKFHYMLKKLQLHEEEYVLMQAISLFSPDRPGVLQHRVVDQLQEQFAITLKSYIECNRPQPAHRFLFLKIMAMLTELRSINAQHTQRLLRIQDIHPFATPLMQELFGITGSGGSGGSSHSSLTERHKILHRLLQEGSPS
Put plainly: Temperature-dependent circular dichroism, stabilization of PXR-LBD-L10-SRC. The settings on record: 25 uM compound. The protocol:
The CD is a function of wavelength.
PXR-LBD-L10-SRC was expressed and purified essentially as set forth above. […] Stabilization of PXR-LBD-L10-SRC in the presence of various substances was measured by temperature-dependent circular dichroism. PXR-LBD-L10-SRC was assayed under the following conditions:
Buffer: 25 mM Hepes, pH 7.9, 150 mM NaCl, 5% glycerol, 10 mM BME,
heating ramp at 2° C./min
temperature range: 30-80° C.
A general note: Circular dichroism is widely used to follow secondary structure.

In data set [2] the target is T2, PXR (Homo sapiens, UniProt O75469).
T2 sequence (O75469 1-434): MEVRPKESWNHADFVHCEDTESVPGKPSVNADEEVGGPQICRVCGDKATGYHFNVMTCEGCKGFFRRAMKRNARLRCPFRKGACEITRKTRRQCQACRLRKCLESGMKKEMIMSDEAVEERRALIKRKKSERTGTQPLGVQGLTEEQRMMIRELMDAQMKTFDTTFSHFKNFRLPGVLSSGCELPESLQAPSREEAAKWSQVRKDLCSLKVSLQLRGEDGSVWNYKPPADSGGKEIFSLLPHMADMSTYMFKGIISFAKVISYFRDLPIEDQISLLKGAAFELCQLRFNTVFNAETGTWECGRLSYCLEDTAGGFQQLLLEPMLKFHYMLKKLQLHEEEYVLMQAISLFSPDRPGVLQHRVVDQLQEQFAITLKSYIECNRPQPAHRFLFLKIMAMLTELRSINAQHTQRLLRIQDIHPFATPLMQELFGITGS
The settings on record: read-out: reported Kd; Table 2; cited from earlier work.

Hyperforin: the Tm in data set [1] (2.5 μM protein, 225 nm, apo enzyme Tm 52.9 ± 0.05) is reported as 59.7 C. In addition, the values for the Kd in data set [1] (from CD thermal denaturation) and in data set [2] were 0.1 µM and 0.2 µM, respectively.

The record behind these values is US7785879B1, “Pregnane X receptor compositions, crystals and uses thereof” (Schering Corporation, priority 2005, dated 2010).
